# B1: DNA polymerase III subunit epsilon (Escherichia coli (strain K12)), P03007 (parent)
# chain: MSTAITRQIVLDTETTGMNQIGAHYEGHKIIEIGAVEVVNRRLTGNNFHVYLKPDRLVDPEAFGVHGIADEFLLDKPTFAEVADEFMDYIRGAELVIHNAAFDIGFMDYEFSLLKRDIPKTNTFCKVTDSLAVARKMFPGKRNSLDALCARYEIDNSKRTLHGALLDAQILAEVYLAMTGGQTSMAFAMEGETQQQQGEATIQRIVRQASKLRVVFATDEEIAAHEARLDLVQKKGGSCLWRA
# Variants of: B1
# Details: with dpo3a_ecoli dnaE
row,Variant,effect of a mutation on the interaction
1,MSTAITRQIVLDTETTGMNQIGAHYEGHKIIEIGAVEVVNRRLTGNNFHVYLKPDRLVDPEAFGVHGIADEFLLDKPTFAEVADEFMDYIRGAELGIHNAAFDIGFMDYEFSLLKRDIPKTNTFCKVTDSLAVARKMFPGKRNSLDALCARYEIDNSKRTLHGALLDAQILAEVYLAMTGGQTSMAFAMEGETQQQQGEATIQRIVRQASKLRVVFATDEEIAAHEARLDLVQKKGGSCLWRA [V96G],decreasing interaction
